Source: patent US4820703A, “PAF-antagonistic thienotriazolodiazepine compounds and pharmaceutical uses thereof” (Yoshitomi Pharmaceutical Industries Ltd., priority 1986, dated 1989)

System: PAF-induced lethal shock
Experiment: Effect on PAF-induced lethal shock in mice
Type: in vivo, mice (male ICR)
Conditions: 80 μg/kg PAF i.v., 24 hours
Experimental: The experiment was carried out according to the method of Young et al. described in Prostaglandins, vol. 30, p. 545 (1985). Groups of 9 to 15 male ICR mice (Charles River) weighing 25-30 g were used. 80 μg/kg of PAF (Serdary Research Lab.) solution was intravenously administered in a lateral tail vein 1 hour after the oral administration of test compound (0.1 ml/10 g). […] Results were given as number of survivors/number of employed animals and survival rates (%) in Table 3.

Compound: CCc1cc2c(s1)-n1c(C)nnc1CN=C2c1ccccc1Cl [Etizolam, 6-(o-chlorophenyl)-8-ethyl-1-methyl-4H-s-triazolo[3,4-c]thieno[2,3-e][1,4]diazepine, reference compound]
- Survival rate (1.0 mg/kg p.o.): 9.1%
- number of survivors/number of employed animals (1.0 mg/kg p.o.): 1/11
- Survival rate (3.0 mg/kg p.o.): 27.3%
- number of survivors/number of employed animals (3.0 mg/kg p.o.): 3/11
- Survival rate (10.0 mg/kg p.o.): 54.5%
- number of survivors/number of employed animals (10.0 mg/kg p.o.): 6/11
